Legend:
[1] = test system: A549 cells; experiment: BH3-M6 and CEP-1612 alone or in combination in A549 cells (MTT, TUNEL, PARP cleavage); conditions: tested form: diammonium salt (as drawn, CO2NH4)
Method: FIG. 7 is a series of images illustrating BH3-M6 sensitizes A549 cells to the proteasome inhibitor CEP-1612 to induce apoptosis. A549 cells were treated with the indicated concentrations of either drug alone or in combination and then processed for various assays as described in EXPERIMENTAL PROCEDURES. (A) Cell viability as measured by MTT assay after 72 h of treatment, error bars indicate standard deviations of triplicates. (B) apoptosis as determined by TUNEL assay after 48 h of treatment. (C) PARP cleavage after 24 hours of drug treatment.
Release of cytochrome c from isolated mitochondria was measured as described by Takahashi et al. (Takahashi, Y., Karbowski, M., Yamaguchi, H., Kazi, A., Wu, J., Sebti, S. M., Youle, R. J., and Wang, H. G. (2005) Mol Cell Biol 25, 9369-9382) Cell-free caspase-3/-7 activity and the extent of PARP cleavage was determined as described previously. (Kazi, A., Smith, D. M., Zhong, Q., and Dou, Q. P. (2002) Mol Pharmacol 62, 765-771) MTT (3-(4,5-dimethylthiazol-2-yl)-2,5-diphenyltetrazolium bromide) and TUNEL assays were performed according to Kazi et al., both of which are incorporated herein by reference. (Kazi, A., Lawrence, H., Guida, W. C., McLaughlin, M. L., Springett, G. M., Berndt, N., Yip, R. M. L., and Sebti, S. M. (2009) Cell Cycle 8, 1940-1951)
To determine whether BH3-M6 sensitizes cells to apoptosis induced by other stimuli, the inventors treated A549 cells with BH3-M6 and CEP-1612 (Sun, J., Nam, S., Lee, C. S., Li, B., Coppola, D., Hamilton, A. D., Dou, Q. P., and Sebti, S. M. (2001) Cancer Res 61, 1280-1284), either alone or in combination. BH3-M6 and CEP-1612 alone had little effect on cell viability (about 20% and about 28%, respectively) (FIG. 7A) and apoptosis (about 5% and about 8%, respectively) (FIG. 7B). […] The results from FIG. 7C were obtained after about 24 hours of drug treatment, whereas those from FIG. 5C were obtained after about 48 hours of drug treatment.

[2] = test system: A549 cells; experiment: MTT cell viability, A549 cells; conditions: A549, 72 h; tested form: diammonium salt (as drawn, CO2NH4)
Method: FIG. 5 is a series of images illustrating BH3-M6 induces apoptosis in a caspase-dependent manner. (A) BH3-M6 releases cytochrome c from mitochondria. Mitochondria from A549 cells were incubated at 37° C. with 0, 50 μM BH3-M6 or TPC for 60 min. Cytochrome c release was determined as described in Methods. B-D A549 cells were treated with the indicated BH3-M6 concentrations for up to 72 h and then processed for various assays as described in EXPERIMENTAL PROCEDURES. (B) BH3-M6 induces apoptosis after 48 h of exposure to BH3-M6, as shown by phase images of cells (left panel) or DAPI nuclear staining (right panel). The arrows point towards cells in the process of rounding. The images from phase and DAPI are from different experiments. […] (D) BH3-M6 decreases the viability of A549 cells in a dose-dependent manner as measured by MTT assay after 72 h treatment. […] Caspase-3/-7 activity was determined as described in EXPERIMENTAL PROCEDURES. […] Middle panel, PARP cleavage was measured by Western blotting. Lower panel, extent of apoptosis was measured by TUNEL assay.
Release of cytochrome c from isolated mitochondria was measured as described by Takahashi et al. (Takahashi, Y., Karbowski, M., Yamaguchi, H., Kazi, A., Wu, J., Sebti, S. M., Youle, R. J., and Wang, H. G. (2005) Mol Cell Biol 25, 9369-9382) Cell-free caspase-3/-7 activity and the extent of PARP cleavage was determined as described previously. […]

SMILES: CC(C)Cc1cc(-c2ccc(-c3ccc(CCC(=O)O)cc3CC(C)C)cc2Cc2ccccc2)ccc1OCC(=O)O
- inhibition of cell viability ([1]; A549, MTT, 72 h): about 20%
- induction of apoptosis ([1]; A549, TUNEL, 48 h): about 5%
- PARP cleavage ([1]; A549, immunoblot, about 24 hours): but not either drug alone
- cell viability as measured by MTT assay [2]: inhibited cell viability

Reference: patent US20130295185A1, “COMPOUNDS AND METHODS FOR INDUCING APOPTOSIS IN CANCER CELLS USING A BH3 ALPHA-HELICAL MIMETIC” (H. Lee Moffitt Cancer Center and Research Institute, Inc., priority 2011, published 2013)
